Measurements as given in ChEMBL document CHEMBL5321287, “Discovery, Synthesis, and Evaluation of Novel Dual Inhibitors of a Vascular Endothelial Growth Factor Receptor and Poly(ADP-Ribose) Polymerase for BRCA Wild-Type Breast Cancer Therapy” (J Med Chem, 2023).
Activity calls are given as the source filed them.

Amino acid sequences for entries named in this document (tags omitted).
UniProt P35916, whole entry: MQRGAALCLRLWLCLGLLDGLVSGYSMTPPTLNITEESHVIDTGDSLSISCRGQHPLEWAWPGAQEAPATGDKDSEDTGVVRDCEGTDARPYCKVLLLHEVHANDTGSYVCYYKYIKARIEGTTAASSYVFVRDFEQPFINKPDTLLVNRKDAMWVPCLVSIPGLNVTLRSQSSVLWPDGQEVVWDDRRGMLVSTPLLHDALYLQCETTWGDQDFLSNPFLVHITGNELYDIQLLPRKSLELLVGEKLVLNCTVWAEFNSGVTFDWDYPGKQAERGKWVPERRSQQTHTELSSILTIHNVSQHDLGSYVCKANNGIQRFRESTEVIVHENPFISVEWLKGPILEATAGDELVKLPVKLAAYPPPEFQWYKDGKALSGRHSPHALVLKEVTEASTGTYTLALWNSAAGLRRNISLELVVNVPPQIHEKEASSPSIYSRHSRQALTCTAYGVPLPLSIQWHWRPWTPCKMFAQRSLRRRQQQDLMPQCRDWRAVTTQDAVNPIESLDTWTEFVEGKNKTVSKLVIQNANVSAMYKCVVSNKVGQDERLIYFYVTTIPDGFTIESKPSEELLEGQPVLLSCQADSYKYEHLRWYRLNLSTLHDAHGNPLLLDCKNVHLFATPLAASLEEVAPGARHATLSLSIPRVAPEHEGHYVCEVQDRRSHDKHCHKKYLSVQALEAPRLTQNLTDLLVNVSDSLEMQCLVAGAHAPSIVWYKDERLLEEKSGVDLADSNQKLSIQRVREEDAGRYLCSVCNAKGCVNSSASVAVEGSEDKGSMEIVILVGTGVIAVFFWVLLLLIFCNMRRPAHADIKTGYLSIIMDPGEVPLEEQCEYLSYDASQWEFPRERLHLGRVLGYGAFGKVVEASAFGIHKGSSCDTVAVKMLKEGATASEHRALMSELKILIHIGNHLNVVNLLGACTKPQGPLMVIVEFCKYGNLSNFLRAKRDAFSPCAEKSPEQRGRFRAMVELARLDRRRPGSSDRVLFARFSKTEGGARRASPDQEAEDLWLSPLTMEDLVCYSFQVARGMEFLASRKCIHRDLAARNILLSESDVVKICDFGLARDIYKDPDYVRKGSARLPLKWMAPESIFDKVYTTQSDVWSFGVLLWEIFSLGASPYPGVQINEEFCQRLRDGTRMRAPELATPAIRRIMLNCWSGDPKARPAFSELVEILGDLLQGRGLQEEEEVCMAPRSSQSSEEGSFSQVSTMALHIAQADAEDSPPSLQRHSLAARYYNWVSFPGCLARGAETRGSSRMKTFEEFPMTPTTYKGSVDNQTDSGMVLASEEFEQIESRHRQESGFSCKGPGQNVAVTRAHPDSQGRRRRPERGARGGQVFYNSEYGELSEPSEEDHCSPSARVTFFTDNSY
UniProt P17948, whole entry: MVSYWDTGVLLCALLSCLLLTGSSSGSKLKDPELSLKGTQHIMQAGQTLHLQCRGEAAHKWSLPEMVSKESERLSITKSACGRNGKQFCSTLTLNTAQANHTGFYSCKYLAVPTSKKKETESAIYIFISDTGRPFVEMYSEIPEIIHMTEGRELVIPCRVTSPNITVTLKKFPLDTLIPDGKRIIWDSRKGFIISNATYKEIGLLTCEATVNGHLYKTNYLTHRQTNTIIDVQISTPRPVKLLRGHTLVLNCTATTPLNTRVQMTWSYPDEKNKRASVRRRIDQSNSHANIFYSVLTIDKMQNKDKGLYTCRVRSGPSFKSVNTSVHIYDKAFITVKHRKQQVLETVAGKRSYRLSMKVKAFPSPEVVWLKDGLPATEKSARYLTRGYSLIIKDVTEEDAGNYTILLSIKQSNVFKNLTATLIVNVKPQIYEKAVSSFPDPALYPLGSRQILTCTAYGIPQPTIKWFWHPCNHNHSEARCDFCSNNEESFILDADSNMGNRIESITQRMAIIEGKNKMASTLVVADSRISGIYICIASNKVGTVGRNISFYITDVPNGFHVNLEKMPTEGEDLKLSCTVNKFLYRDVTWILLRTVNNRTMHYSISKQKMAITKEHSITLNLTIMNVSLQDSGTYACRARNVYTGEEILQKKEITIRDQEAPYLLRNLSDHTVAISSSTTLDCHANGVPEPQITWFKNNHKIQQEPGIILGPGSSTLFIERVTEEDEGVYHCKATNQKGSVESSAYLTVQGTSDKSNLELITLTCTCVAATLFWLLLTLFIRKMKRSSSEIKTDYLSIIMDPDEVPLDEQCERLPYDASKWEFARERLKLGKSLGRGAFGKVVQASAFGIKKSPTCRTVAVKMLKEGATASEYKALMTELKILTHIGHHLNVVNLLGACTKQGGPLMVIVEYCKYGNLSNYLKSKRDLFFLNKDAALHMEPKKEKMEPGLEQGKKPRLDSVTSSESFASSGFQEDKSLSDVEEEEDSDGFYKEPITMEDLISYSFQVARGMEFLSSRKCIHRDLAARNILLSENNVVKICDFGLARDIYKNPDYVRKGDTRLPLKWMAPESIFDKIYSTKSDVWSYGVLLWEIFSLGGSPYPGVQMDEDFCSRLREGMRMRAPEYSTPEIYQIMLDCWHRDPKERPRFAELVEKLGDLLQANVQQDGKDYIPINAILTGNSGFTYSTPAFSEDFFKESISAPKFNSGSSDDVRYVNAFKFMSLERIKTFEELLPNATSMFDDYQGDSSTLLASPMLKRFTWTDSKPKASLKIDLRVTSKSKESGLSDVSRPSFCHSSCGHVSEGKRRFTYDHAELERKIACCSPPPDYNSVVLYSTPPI
UniProt P35968, whole entry: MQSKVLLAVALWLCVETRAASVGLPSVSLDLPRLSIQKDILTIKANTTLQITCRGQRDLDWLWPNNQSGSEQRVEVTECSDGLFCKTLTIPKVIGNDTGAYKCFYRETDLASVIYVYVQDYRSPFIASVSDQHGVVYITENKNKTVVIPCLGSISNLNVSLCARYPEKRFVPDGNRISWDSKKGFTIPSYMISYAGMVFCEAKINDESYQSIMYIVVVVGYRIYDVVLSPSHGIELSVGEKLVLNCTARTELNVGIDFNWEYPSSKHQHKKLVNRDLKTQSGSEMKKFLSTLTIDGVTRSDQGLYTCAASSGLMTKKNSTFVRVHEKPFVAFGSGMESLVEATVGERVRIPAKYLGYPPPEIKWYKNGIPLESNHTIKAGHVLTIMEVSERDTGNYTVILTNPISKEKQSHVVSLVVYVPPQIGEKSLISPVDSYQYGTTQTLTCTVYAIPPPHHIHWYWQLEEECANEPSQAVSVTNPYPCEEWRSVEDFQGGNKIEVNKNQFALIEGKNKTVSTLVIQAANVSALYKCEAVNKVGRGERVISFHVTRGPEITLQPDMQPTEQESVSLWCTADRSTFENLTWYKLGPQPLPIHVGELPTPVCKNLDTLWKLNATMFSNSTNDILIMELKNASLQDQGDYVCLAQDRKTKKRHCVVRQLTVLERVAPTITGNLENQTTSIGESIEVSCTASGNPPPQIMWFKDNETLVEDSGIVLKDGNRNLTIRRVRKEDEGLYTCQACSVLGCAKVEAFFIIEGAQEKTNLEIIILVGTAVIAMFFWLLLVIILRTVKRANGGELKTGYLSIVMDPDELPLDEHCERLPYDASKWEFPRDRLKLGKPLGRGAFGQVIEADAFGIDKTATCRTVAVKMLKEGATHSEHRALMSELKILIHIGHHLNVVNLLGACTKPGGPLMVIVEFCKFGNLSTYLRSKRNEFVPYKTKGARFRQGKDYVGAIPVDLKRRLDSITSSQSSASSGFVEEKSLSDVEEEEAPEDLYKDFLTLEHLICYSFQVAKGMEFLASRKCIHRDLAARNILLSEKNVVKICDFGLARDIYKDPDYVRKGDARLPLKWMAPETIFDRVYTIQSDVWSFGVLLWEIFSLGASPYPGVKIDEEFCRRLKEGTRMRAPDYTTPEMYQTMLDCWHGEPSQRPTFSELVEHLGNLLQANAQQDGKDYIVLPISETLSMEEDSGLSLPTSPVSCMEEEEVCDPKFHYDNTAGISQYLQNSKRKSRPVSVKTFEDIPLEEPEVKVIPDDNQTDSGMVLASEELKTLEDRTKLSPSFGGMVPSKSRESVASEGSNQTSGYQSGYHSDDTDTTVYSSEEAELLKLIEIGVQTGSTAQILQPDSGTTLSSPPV

How the values were obtained:
[1] = target: T1, Vascular endothelial growth factor receptor 3 (Homo sapiens, UniProt P35916); settings: MDA-MB-231, dose 25-50 mg/kg, route po, time 14.0 day
[2] = target: T2, Vascular endothelial growth factor receptor 1 (Homo sapiens, UniProt P17948); settings: MDA-MB-231, dose 25-50 mg/kg, route po, time 14.0 day
[3] = target: T1, Vascular endothelial growth factor receptor 3; settings: MDA-MB-231, dose 25-50 mg/kg, route po, time 14.0 day; remark: listed apart in the source
[4] = target: T2, Vascular endothelial growth factor receptor 1; settings: MDA-MB-231, dose 25-50 mg/kg, route po, time 14.0 day; remark: listed apart in the source
MDA-MB-231 [5] = assay: Antimigratory activity in human MDA-MB-231 cells assessed as downregulation of MMP-2 level at 4 uM by DAPI staining based immunofluorescence analysis; type: functional, cell-based
[6] = target: T1, Vascular endothelial growth factor receptor 3; settings: MDA-MB-231, dose 50.0 mg/kg, route po, time 14.0 day
MDA-MB-231 [7] = assay: Antimigratory activity in human MDA-MB-231 cells assessed as downregulation of MMP-2 level at 4 uM incubated for 2 days by immunoblot analysis; type: functional, cell-based; settings: time 2.0 day
MCF7 [8] = assay: Induction of cell cycle arrest at S phase in human MCF7 cells at 4 uM by Annexin-V-FLUOS staining based flow cytometry; type: functional
MCF7 [9] = assay: Antimigratory activity in human MCF7 cells assessed as downregulation of MMP-2 level at 4 uM by DAPI staining based immunofluorescence analysis; type: functional, cell-based
MDA-MB-231 [10] = assay: Induction of cell cycle arrest at G2/M phase in human MDA-MB-231 cells at 4 uM by Annexin-V-FLUOS staining based flow cytometry; type: functional
[11] = target: T1, Vascular endothelial growth factor receptor 3; settings: MDA-MB-231, dose 25-50 mg/kg, route po, time 14.0 day; remark: listed apart in the source
MDA-MB-231 [12] = assay: Induction of HR DNA repair in human MDA-MB-231 cells xenografted in BALB/c nude mouse assessed as decrease in BRCA1 level at 50 mg/kg, po for 14 days in presence of 1:1 of compound:Pazopanib by H and E staining based IHC analysis; type: functional, organism-based; settings: time 14.0 day
[13] = target: T3, Vascular endothelial growth factor receptor 2 (Homo sapiens, UniProt P35968); settings: MDA-MB-231, dose 25-50 mg/kg, route po, time 14.0 day
MDA-MB-231 [14] = assay: Induction of DNA damage in human MDA-MB-231 cells assessed as increase in gamma-H2AX level at 4 uM incubated for 48 hrs by DAPI staining based immunofluorescence analysis; type: functional, cell-based
MCF7 [15] = assay: Induction of HR DNA repair in human MCF7 cells assessed as decrease in RAD51 level at 4 uM incubated for 48 hrs by DAPI staining based immunofluorescence analysis; type: functional, cell-based
MCF7 [16] = assay: Antimigratory activity in human MCF7 cells assessed as upregulation of E-cadherin level at 4 uM by DAPI staining based immunofluorescence analysis; type: functional, cell-based
[17] = target: T3, Vascular endothelial growth factor receptor 2; settings: MDA-MB-231, dose 50.0 mg/kg, route po, time 14.0 day
MDA-MB-231 [18] = assay: Induction of HR DNA repair in human MDA-MB-231 cells assessed as decrease in RAD51 level at 4 uM incubated for 48 hrs by DAPI staining based immunofluorescence analysis; type: functional, cell-based
MCF7 [19] = assay: Antimigratory activity in human MCF7 cells assessed as upregulation of E-cadherin level at 4 uM incubated for 2 days by immunoblot analysis; type: functional, cell-based; settings: time 2.0 day
MDA-MB-231 [20] = assay: Antimigratory activity in human MDA-MB-231 cells assessed as upregulation of E-cadherin level at 4 uM incubated for 2 days by immunoblot analysis; type: functional, cell-based; settings: time 2.0 day
MCF7 [21] = assay: Induction of cell cycle arrest at G2/M phase in human MCF7 cells at 4 uM by Annexin-V-FLUOS staining based flow cytometry; type: functional
MDA-MB-231 [22] = assay: Induction of cell cycle arrest at S phase in human MDA-MB-231 cells at 4 uM by Annexin-V-FLUOS staining based flow cytometry; type: functional
MDA-MB-231 [23] = assay: Antimigratory activity in human MDA-MB-231 cells assessed as upregulation of E-cadherin level at 4 uM by DAPI staining based immunofluorescence analysis; type: functional, cell-based
MCF7 [24] = assay: Induction of DNA damage in human MCF7 cells assessed as increase in gamma-H2AX level at 4 uM incubated for 48 hrs by DAPI staining based immunofluorescence analysis; type: functional, cell-based
[25] = target: T2, Vascular endothelial growth factor receptor 1; settings: MDA-MB-231, dose 50.0 mg/kg, route po, time 14.0 day
MCF7 [26] = assay: Antimigratory activity in human MCF7 cells assessed as downregulation of MMP-2 level at 4 uM incubated for 2 days by immunoblot analysis; type: functional, cell-based; settings: time 2.0 day
[27] = target: T2, Vascular endothelial growth factor receptor 1; settings: MDA-MB-231, dose 25-50 mg/kg, route po, time 14.0 day; remark: listed apart in the source

Cc1ccc(Nc2nccc(N(C)c3ccc4c(C)n(C)nc4c3)n2)cc1-c1nc2c(C(N)=O)cccc2[nH]1
active: inhibition [1] | inhibition [2] | inhibition [3] | inhibition [4]

O=C(c1cc(Cc2n[nH]c(=O)c3ccccc23)ccc1F)N1CCN(C(=O)C2CC2)CC1 [OLAPARIB]
active: Activity (MDA-MB-231 [5]) | inhibition [6] | Activity (MDA-MB-231 [7]) | Activity (MCF7 [8]) | Activity (MCF7 [9]) | Activity (MDA-MB-231 [10]) | inhibition [11] | Activity (MDA-MB-231 [12]) | inhibition [13] | Activity (MDA-MB-231 [14]) | Activity (MCF7 [15]) | Activity (MCF7 [16]) | inhibition [17] | Activity (MDA-MB-231 [18]) | Activity (MCF7 [19]) | Activity (MDA-MB-231 [20]) | Activity (MCF7 [21]) | Activity (MDA-MB-231 [22]) | Activity (MDA-MB-231 [23]) | Activity (MCF7 [24]) | inhibition [25] | Activity (MCF7 [26]) | inhibition [27]
